# Values quoted from earlier work in patent publication US6759059B1.
# Some compounds may have been tested in ways that are not shown here.
# Details: transbuccal lozenge; Farrar et al. 1998
smiles,measurement,value
CCC(=O)N(c1ccccc1)C1CCN(CCc2ccccc2)CC1,time of peak plasma concentrations,around 20 minutes
